Target: Alpha2C (Homo sapiens, UniProt P18825)
Assay: pKi values of test compounds, Alpha2C (Table 1)
Format: binding

The chains behind the UniProt entries cited, without tags or fusion partners.
UniProt P18825, whole entry: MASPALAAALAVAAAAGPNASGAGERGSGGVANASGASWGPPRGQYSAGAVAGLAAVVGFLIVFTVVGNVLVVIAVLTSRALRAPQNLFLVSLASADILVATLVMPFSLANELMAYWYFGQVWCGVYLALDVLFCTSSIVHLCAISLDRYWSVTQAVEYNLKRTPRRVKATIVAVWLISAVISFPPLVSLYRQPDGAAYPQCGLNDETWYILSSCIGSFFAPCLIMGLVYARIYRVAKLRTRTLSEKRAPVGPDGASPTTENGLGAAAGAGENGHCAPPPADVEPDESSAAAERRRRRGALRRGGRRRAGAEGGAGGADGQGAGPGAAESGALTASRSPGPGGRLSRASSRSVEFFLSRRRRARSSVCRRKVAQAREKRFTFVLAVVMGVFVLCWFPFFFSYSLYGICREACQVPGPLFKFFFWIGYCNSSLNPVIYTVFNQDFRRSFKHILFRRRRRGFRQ

`CN(C)CCOC1=Cc2ccccc2Sc2ccc(Cl)cc21` [Zotepine] showed a Ki of 0.01 to 0.1 µM.
